Read-outs that look alike come from different tables or passages of the source.

Sequences of proteins named here, by UniProt entry; tags and fusion partners are left off. Residues count along the entry.
UniProt P47871, 26-477: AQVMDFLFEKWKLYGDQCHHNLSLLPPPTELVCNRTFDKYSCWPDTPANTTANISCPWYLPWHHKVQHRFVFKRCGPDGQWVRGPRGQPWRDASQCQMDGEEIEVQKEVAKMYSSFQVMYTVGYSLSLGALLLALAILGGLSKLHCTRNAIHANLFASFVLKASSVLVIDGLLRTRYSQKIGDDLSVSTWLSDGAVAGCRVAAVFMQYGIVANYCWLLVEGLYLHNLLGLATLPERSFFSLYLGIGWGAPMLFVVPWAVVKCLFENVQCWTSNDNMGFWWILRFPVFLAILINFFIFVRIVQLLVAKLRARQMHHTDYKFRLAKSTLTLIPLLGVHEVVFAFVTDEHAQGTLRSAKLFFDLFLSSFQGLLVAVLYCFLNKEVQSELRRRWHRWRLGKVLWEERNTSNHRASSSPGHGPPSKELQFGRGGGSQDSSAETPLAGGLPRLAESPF
UniProt P43220, 24-463: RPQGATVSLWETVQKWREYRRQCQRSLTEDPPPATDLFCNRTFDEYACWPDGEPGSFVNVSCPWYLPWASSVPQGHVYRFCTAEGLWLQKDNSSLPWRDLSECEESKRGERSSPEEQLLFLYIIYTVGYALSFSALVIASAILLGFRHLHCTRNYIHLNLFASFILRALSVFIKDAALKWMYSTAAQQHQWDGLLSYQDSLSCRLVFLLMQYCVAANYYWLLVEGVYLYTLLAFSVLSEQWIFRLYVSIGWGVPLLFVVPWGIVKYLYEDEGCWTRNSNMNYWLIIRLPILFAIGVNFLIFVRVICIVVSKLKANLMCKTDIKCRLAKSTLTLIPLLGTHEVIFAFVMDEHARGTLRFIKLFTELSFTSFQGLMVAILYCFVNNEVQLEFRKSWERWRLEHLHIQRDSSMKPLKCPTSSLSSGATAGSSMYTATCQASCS

A word on the EC50: it is the concentration that produces a half-maximal response.

One test deals with T1, human glucagon receptor (Homo sapiens, UniProt P47871).
T1 construct: expressed in transfected cells; host or cells: HEK-293
The test can be described thus: cAMP response (HTRF) of HEK-293 cells stably expressing human glucagon receptor. The test is classed as cell-based. Background: In TR-FRET formats the signal depends on donor and acceptor labels being close together.

Another test addresses T2, human GLP-1 receptor (Homo sapiens, UniProt P43220).
T2 construct: expressed in transfected cells; host or cells: HEK-293
Description: cAMP response (HTRF) of HEK-293 cells stably expressing human GLP-1 receptor. Format: cell-based.

Where [1] appears, read: Table 5, cAMP, HEK-293, read-out: EC50 hGlucagon-R.
The mark [2] stands for this setting: Table 5, cAMP, HEK-293, read-out: EC50 hGLP-1R.

With `CCCCCCCCCCCCCCCCCC(=O)N[C@@H](CCC(=O)NCCCC[C@H](NC(=O)[C@H](CCC(N)=O)NC(=O)[C@H](CCCCN)NC(=O)[C@H](CO)NC(=O)[C@H](CC(C)C)NC(=O)[C@H](CC(=O)O)NC(=O)[C@H](CO)NC(=O)[C@@H](NC(=O)[C@H](Cc1ccccc1)NC(=O)[C@@H](NC(=O)CNC(=O)[C@H](CCC(N)=O)NC(=O)C(C)(C)NC(=O)[C@@H](N)Cc1c[nH]cn1)[C@@H](C)O)[C@@H](C)O)C(=O)N[C@@H](CC(=O)O)C(=O)N[C@@H](CCCCN)C(=O)N[C@@H](CCCNC(=N)N)C(=O)N[C@@H](CCCNC(=N)N)C(=O)N[C@@H](C)C(=O)N[C@@H](CCC(N)=O)C(=O)N[C@@H](CC(=O)O)C(=O)N[C@@H](Cc1ccccc1)C(=O)N[C@H](C(=O)N[C@@H](CCC(=O)O)C(=O)N[C@@H](Cc1c[nH]c2ccccc12)C(=O)N[C@@H](CC(C)C)C(=O)N[C@@H](CCCCN)C(=O)N[C@@H](C)C(=O)N[C@H](C)C(=O)NCC(=O)N1CCC[C@H]1C(=O)N[C@@H](CO)C(=O)N[C@@H](CO)C(=O)NCC(=O)N[C@@H](C)C(=O)N1CCC[C@H]1C(=O)N1CCC[C@H]1C(=O)N1CCC[C@H]1C(=O)N[C@@H](CO)C(N)=O)[C@@H](C)CC)C(=O)O` [compound 209], the results for the EC50 at human glucagon receptor (setting [1]) and on human GLP-1 receptor (setting [2]) were 1.9 pM and 5.4 pM, respectively.
Turning to `CCCCCCCCCCCCCCCCCC(=O)N[C@@H](CCC(=O)N[C@@H](CCC(=O)NCCCC[C@H](NC(=O)[C@H](CCC(N)=O)NC(=O)[C@H](CCCCN)NC(=O)[C@H](CO)NC(=O)[C@H](CC(C)C)NC(=O)[C@H](CC(=O)O)NC(=O)[C@H](CO)NC(=O)[C@@H](NC(=O)[C@H](Cc1ccccc1)NC(=O)[C@@H](NC(=O)CNC(=O)[C@H](CCC(N)=O)NC(=O)[C@@H](CO)NC(=O)[C@@H](N)Cc1c[nH]cn1)[C@@H](C)O)[C@@H](C)O)C(=O)N[C@@H](CCC(=O)O)C(=O)N[C@@H](CO)C(=O)N[C@@H](CCCNC(=N)N)C(=O)N[C@@H](C)C(=O)N[C@@H](C)C(=O)N[C@@H](CCC(N)=O)C(=O)N[C@@H](CC(=O)O)C(=O)N[C@@H](Cc1ccccc1)C(=O)N[C@H](C(=O)N[C@@H](CCC(=O)O)C(=O)N[C@@H](Cc1c[nH]c2ccccc12)C(=O)N[C@@H](CC(C)C)C(=O)N[C@@H](CCCCN)C(=O)N[C@@H](C)C(=O)NCC(=O)NCC(=O)N1CCC[C@H]1C(=O)N[C@@H](CO)C(=O)N[C@@H](CO)C(=O)NCC(=O)N[C@@H](C)C(=O)N1CCC[C@H]1C(=O)N1CCC[C@H]1C(=O)N1CCC[C@H]1C(=O)N[C@@H](CO)C(N)=O)[C@@H](C)CC)C(=O)O)C(=O)O` [compound 52], the EC50 on human glucagon receptor (setting [1]) turned out to be 2 pM; at human GLP-1 receptor (setting [2]), 1.9 pM.
With `CCCCCCCCCCCCCCCC(=O)NCCCC(=O)NCCCC[C@H](NC(=O)[C@H](CCC(N)=O)NC(=O)[C@H](CCCCN)NC(=O)[C@H](CO)NC(=O)[C@H](CC(C)C)NC(=O)[C@H](CC(=O)O)NC(=O)[C@H](CO)NC(=O)[C@@H](NC(=O)[C@H](Cc1ccccc1)NC(=O)[C@@H](NC(=O)CNC(=O)[C@H](CCC(N)=O)NC(=O)[C@@H](CO)NC(=O)[C@@H](N)Cc1c[nH]cn1)[C@@H](C)O)[C@@H](C)O)C(=O)N[C@@H](CCC(=O)O)C(=O)N[C@@H](CO)C(=O)N[C@@H](CCCCN)C(=O)N[C@@H](C)C(=O)N[C@@H](C)C(=O)N[C@@H](CCC(N)=O)C(=O)N[C@@H](CC(=O)O)C(=O)N[C@@H](Cc1ccccc1)C(=O)N[C@H](C(=O)N[C@@H](CCC(=O)O)C(=O)N[C@@H](Cc1c[nH]c2ccccc12)C(=O)N[C@@H](CC(C)C)C(=O)N[C@@H](CCCCN)C(=O)N[C@@H](C)C(=O)NCC(=O)NCC(=O)N1CCC[C@H]1C(=O)N[C@@H](CO)C(=O)N[C@@H](CO)C(=O)NCC(=O)N[C@@H](C)C(=O)N1CCC[C@H]1C(=O)N1CCC[C@H]1C(=O)N1CCC[C@H]1C(=O)N[C@@H](CO)C(N)=O)[C@@H](C)CC` [compound 7], the EC50 at human glucagon receptor (setting [1]) is 20.7 pM; on human GLP-1 receptor (setting [2]) it was 3.5 pM.
Take `CCCC[C@H](NC(=O)[C@H](CCC(N)=O)NC(=O)[C@H](CCCCN)NC(=O)[C@H](CO)NC(=O)[C@H](CC(C)C)NC(=O)[C@H](CC(=O)O)NC(=O)[C@H](CO)NC(=O)[C@@H](NC(=O)[C@H](Cc1ccccc1)NC(=O)[C@@H](NC(=O)CNC(=O)[C@H](CCC(N)=O)NC(=O)[C@@H](CO)NC(=O)[C@@H](N)Cc1c[nH]cn1)[C@@H](C)O)[C@@H](C)O)C(=O)N[C@@H](CC(=O)O)C(=O)N[C@@H](CO)C(=O)N[C@@H](CCCCN)C(=O)N[C@@H](C)C(=O)N[C@@H](C)C(=O)N[C@@H](CCC(N)=O)C(=O)N[C@@H](CC(=O)O)C(=O)N[C@@H](Cc1ccccc1)C(=O)N[C@H](C(=O)N[C@@H](CCC(=O)O)C(=O)N[C@@H](Cc1c[nH]c2ccccc12)C(=O)N[C@@H](CC(C)C)C(=O)N[C@@H](CCCCN)C(=O)N[C@@H](C)C(=O)NCC(=O)NCC(=O)N1CCC[C@H]1C(=O)N[C@@H](CO)C(=O)N[C@@H](CO)C(=O)NCC(=O)N[C@@H](C)C(=O)N1CCC[C@H]1C(=O)N1CCC[C@H]1C(=O)N1CCC[C@H]1C(=O)N[C@@H](CO)C(N)=O)[C@@H](C)CC` [compound 192]: the 50% effective concentration (EC50) on human glucagon receptor (Table 8, comparison testing of position 14, read-out: EC50 hGlucagon-R) was 478 pM; at human GLP-1 receptor (Table 8, comparison testing of position 14, read-out: EC50 hGLP-1R), 6.8 pM.
For the molecule `CC[C@H](C)[C@H](NC(=O)[C@H](Cc1ccccc1)NC(=O)[C@H](CC(=O)O)NC(=O)[C@H](CCC(N)=O)NC(=O)[C@H](C)NC(=O)[C@H](C)NC(=O)[C@H](CCCNC(=N)N)NC(=O)[C@H](CO)NC(=O)[C@H](CCC(=O)O)NC(=O)[C@H](CCCCNC(=O)CC[C@H](NC(=O)CCC(=O)Oc1c(C)c(C)c2c(c1C)CC[C@@](C)(CCC[C@H](C)CCC[C@H](C)CCCC(C)C)O2)C(=O)O)NC(=O)[C@H](CCC(N)=O)NC(=O)[C@H](CCCCN)NC(=O)[C@H](CO)NC(=O)[C@H](CC(C)C)NC(=O)[C@H](CC(=O)O)NC(=O)[C@H](CO)NC(=O)[C@@H](NC(=O)[C@H](Cc1ccccc1)NC(=O)[C@@H](NC(=O)CNC(=O)[C@H](CCC(N)=O)NC(=O)[C@@H](CO)NC(=O)[C@@H](N)Cc1c[nH]cn1)[C@@H](C)O)[C@@H](C)O)C(=O)N[C@@H](CCC(=O)O)C(=O)N[C@@H](Cc1c[nH]c2ccccc12)C(=O)N[C@@H](CC(C)C)C(=O)N[C@@H](CCCCN)C(=O)N[C@@H](C)C(=O)NCC(=O)NCC(=O)N1CCC[C@H]1C(=O)N[C@@H](CO)C(=O)N[C@@H](CO)C(=O)NCC(=O)N[C@@H](C)C(=O)N1CCC[C@H]1C(=O)N1CCC[C@H]1C(=O)N1CCC[C@H]1C(=O)N[C@@H](CO)C(N)=O` [compound 57], the EC50 stood at 8 pM on human glucagon receptor (EC50 hGlucagon-R, Table 5, cAMP, HEK-293) and 45 pM on human GLP-1 receptor (EC50 hGLP-1R, Table 5, cAMP, HEK-293).
Regarding `CCCCCCCCCCCCCCCCCC(=O)N[C@@H](CCC(=O)NCCCC[C@H](NC(=O)[C@H](CCC(N)=O)NC(=O)[C@H](CCCCN)NC(=O)[C@H](CO)NC(=O)[C@H](CC(C)C)NC(=O)[C@H](CC(=O)O)NC(=O)[C@H](CO)NC(=O)[C@@H](NC(=O)[C@H](Cc1ccccc1)NC(=O)[C@@H](NC(=O)CNC(=O)[C@H](CCC(N)=O)NC(=O)C(C)(C)NC(=O)[C@@H](N)Cc1c[nH]cn1)[C@@H](C)O)[C@@H](C)O)C(=O)N[C@@H](CC(=O)O)C(=O)N[C@@H](CCC(=O)O)C(=O)N[C@@H](CCC(N)=O)C(=O)N[C@@H](CCCNC(=N)N)C(=O)N[C@@H](C)C(=O)N[C@@H](CCCCN)C(=O)N[C@@H](CCC(=O)O)C(=O)N[C@@H](Cc1ccccc1)C(=O)N[C@H](C(=O)N[C@@H](CCC(=O)O)C(=O)N[C@@H](Cc1c[nH]c2ccccc12)C(=O)N[C@@H](CC(C)C)C(=O)N[C@@H](CCCCN)C(=O)N[C@@H](C)C(=O)NCC(=O)NCC(=O)N1CCC[C@H]1C(=O)N[C@@H](CO)C(=O)N[C@@H](CO)C(=O)NCC(=O)N[C@@H](C)C(=O)N1CCC[C@H]1C(=O)N1CCC[C@H]1C(=O)N1CCC[C@H]1C(=O)N[C@@H](CO)C(N)=O)[C@@H](C)CC)C(=O)O` [compound 152], the EC50 at human glucagon receptor (setting [1]) was found to be 2.3 pM; at human GLP-1 receptor (setting [2]), 3.2 pM.
Consider `CCCCCCCCCCCCCCCC(=O)N[C@@H](CCC(=O)NCCCC[C@H](NC(=O)[C@H](CCC(N)=O)NC(=O)[C@H](CCCCN)NC(=O)[C@H](CO)NC(=O)[C@H](CC(C)C)NC(=O)[C@H](CC(=O)O)NC(=O)[C@H](CO)NC(=O)[C@@H](NC(=O)[C@H](Cc1ccccc1)NC(=O)[C@@H](NC(=O)CNC(=O)[C@H](CCC(N)=O)NC(=O)[C@@H](CO)NC(=O)[C@@H](N)Cc1c[nH]cn1)[C@@H](C)O)[C@@H](C)O)C(=O)N[C@@H](CCC(=O)O)C(=O)N[C@@H](CCC(=O)O)C(=O)N[C@@H](CCC(=O)O)C(=O)N[C@@H](C)C(=O)N[C@@H](C)C(=O)N[C@@H](CCC(N)=O)C(=O)N[C@@H](CC(=O)O)C(=O)N[C@@H](Cc1ccccc1)C(=O)N[C@H](C(=O)N[C@@H](CCC(=O)O)C(=O)N[C@@H](Cc1c[nH]c2ccccc12)C(=O)N[C@@H](CC(C)C)C(=O)N[C@@H](CCCCN)C(=O)N[C@@H](C)C(=O)NCC(=O)NCC(=O)N1CCC[C@H]1C(=O)N[C@@H](CO)C(=O)N[C@@H](CO)C(=O)NCC(=O)N[C@@H](C)C(=O)N1CCC[C@H]1C(=O)N1CCC[C@H]1C(=O)N1CCC[C@H]1C(=O)N[C@@H](CO)C(N)=O)[C@@H](C)CC)C(=O)O` [compound 16], for which the EC50 at human glucagon receptor (setting [1]) worked out at 117 pM; on human GLP-1 receptor (setting [2]), 2.8 pM.
For `CCCCCCCCCCCCCCCCCC(=O)N[C@@H](CCC(=O)NCCCC[C@H](NC(=O)[C@H](CCC(N)=O)NC(=O)[C@H](CCCCN)NC(=O)[C@H](CO)NC(=O)[C@H](CC(C)C)NC(=O)[C@H](CC(=O)O)NC(=O)[C@H](CO)NC(=O)[C@@H](NC(=O)[C@H](Cc1ccccc1)NC(=O)[C@@H](NC(=O)CNC(=O)[C@H](CCC(N)=O)NC(=O)[C@@H](CO)NC(=O)[C@@H](N)Cc1c[nH]cn1)[C@@H](C)O)[C@@H](C)O)C(=O)N[C@@H](CC(=O)O)C(=O)N[C@@H](CO)C(=O)N[C@@H](CCCNC(=N)N)C(=O)N[C@@H](CCCNC(=N)N)C(=O)N[C@@H](C)C(=O)N[C@@H](CCC(N)=O)C(=O)N[C@@H](CC(=O)O)C(=O)N[C@@H](Cc1ccccc1)C(=O)N[C@H](C(=O)N[C@@H](CCC(=O)O)C(=O)N[C@@H](Cc1c[nH]c2ccccc12)C(=O)N[C@@H](CC(C)C)C(=O)N[C@@H](CCCCN)C(=O)N[C@@H](C)C(=O)N[C@H](C)C(=O)NCC(=O)N1CCC[C@H]1C(=O)N[C@@H](CO)C(=O)N[C@@H](CO)C(=O)NCC(=O)N[C@@H](C)C(=O)N1CCC[C@H]1C(=O)N1CCC[C@H]1C(=O)N1CCC[C@H]1C(=O)N[C@@H](CO)C(N)=O)[C@@H](C)CC)C(=O)O` [compound 161] the same measures were 2.4 pM and 5 pM.

The values are drawn from patent US20140100156A1 (SANOFI, priority 2012, published 2014).
